In ChEMBL document CHEMBL1128642, “Discovery of an orally bioavailable NK1 receptor antagonist, (2S,3S)-(2-methoxy-5-tetrazol-1-ylbenzyl)(2-phenylpiperidin-3-yl)amine (GR203040), with potent antiemetic activity” (J Med Chem, 1995):

Tested on: Substance-P receptor (Meriones unguiculatus)
Assay: Compound was evaluated for its ex vivo binding affinity towards substance P receptor measured 15 minutes post administration to gerbil
Details: Gerbillinae

- ED50: 0.015 mg/kg
SMILES: COc1ccc(-n2cnnn2)cc1CN[C@H]1CCCN[C@H]1c1ccccc1
